Measured values reported in patent US6660837 (KIRIN BEER, dated 2003).

Target: T1, PKNN2 (N-terminal region of PKN, amino acid sequence 1-474), 35S-labeled, in vitro translated (human, UniProt Q16512, in part, [35S]methionine label)
T1 construct: also called in vitro translated PKN-N; PKN prepared by in vitro translation
Experiment: GST pull-down of 35S-labeled in vitro translated PKNN2

B1: GST-spectrin repeat 20 of rat α-spectrin (other, UniProt P08515 1-218, looked up)
chain: MSPILGYWKIKGLVQPTRLLLEYLEEKYEEHLYERDEGDKWRNKKFELGLEFPNLPYYIDGDVKLTQSMAIIRYIADKHNMLGGCPKERAEISMLEGAVLDIRYGVSRIAYSKDFETLKVDFLSKLPEMLKMFEDRLCHKTYLNGDHVTHPDFMLYDALDVVLYMDPMCLDAFPKLVCFKKRIEAIPQIDKYLKSSKYIAWPLQGWQATFGGGDHPPKLFLTFAKKASAFNSWFENAEEDLTDPVRCNSLEEIKALREAHDAFRSSLSSAQADFNQLAELDRQIKSFRVASNPYTWFTMEALEETWRNLQKIIKERELELQKEQR
notes: also called GST-spectrin repeat 20 of α-spectrin
B1: no binding.
